## Fraction unbound values, as collected for the OPERA models

Data: OPERA 2.9 data sets, kmansouri/OPERA on GitHub.

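The numbers are reported measurements, compiled and curated for the OPERA QSAR suite. One number stands for a compound and property, with no spread given. Method and conditions are not stated for these values. Where a salt, mixture or single isomer is drawn, the source does not say that exactly this form was tested. Some upstream entries may be estimates or bounds without being marked so.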

fu is the fraction unbound in human plasma, from 0 to 1.

{"smiles": "COC(=O)CCC(=O)OC", "name": "Dimethyl succinate", "fu": "0.9999"}
{"smiles": "COc1cc(CCC(=O)CC(=O)CCc2ccc(O)c(OC)c2)ccc1O", "name": "Tetrahydrocurcumin", "fu": "0.0501"}
{"smiles": "CC(=O)O[C@H]1C[C@H](O[C@H]2[C@@H](O)C[C@H](O[C@H]3[C@@H](O)C[C@H](O[C@H]4CC[C@@]5(C)[C@H](CC[C@H]6[C@H]5CC[C@]5(C)[C@@H](C7=CC(=O)OC7)CC[C@]65O)C4)O[C@@H]3C)O[C@@H]2C)O[C@H](C)[C@H]1O", "name": "Acetyldigitoxin", "fu": "0.2"}
{"smiles": "C[C@H](NCCc1ccc(O)cc1)[C@H](O)c1ccc(O)cc1", "name": "Ritodrine", "fu": "0.655"}
{"smiles": "CC1CS[C@@H]2[C@H](NC(=O)/C(=NOC)/c3c[s]c(N)[n]3)C(=O)N2C=1C(O)=O", "fu": "0.78"}
{"smiles": "CC(=O)Oc1ccccc1C(=O)O", "name": "Aspirin", "fu": "0.4297"}
{"smiles": "COc1cc(/C=C/C(=O)O)ccc1O", "name": "Ferulic acid", "fu": "0.2688"}
{"smiles": "c1ccccc1", "name": "Benzene", "fu": "0.46"}
{"smiles": "CO/N=C(\\C(=O)N[C@@H]1C(=O)N2C(C(=O)[O-])=C(C[n+]3cccc4c3CCC4)CS[C@H]12)c1csc(N)n1", "name": "Cefpirome", "fu": "0.8983"}
{"smiles": "CC(C)(Oc1ccc(Cl)cc1)C(=O)O", "name": "Clofibric acid", "fu": "0.02"}
{"smiles": "Cc1nc[nH]c1CC1CCc2c(C)c3ccccc3n2C1=O", "stereo": "centres undefined", "name": "FK 1052", "fu": "0.02224"}
{"smiles": "c1ccc2cc3c(ccc4ccccc43)cc2c1", "fu": "0.01121"}
{"smiles": "C[C@@H](Oc1ccc(CNC(=O)c2cccnc2Oc2ccc3c(c2)OCO3)c(F)c1)C(=O)O", "fu": "0.0414"}
{"smiles": "COc1ccc(CC2c3cc(OC)c(OC)cc3CC[N+]2(C)CCC(=O)OCCCCCOC(=O)CC[N+]2(C)CCc3cc(OC)c(OC)cc3C2Cc2ccc(OC)c(OC)c2)cc1OC", "stereo": "centres undefined", "name": "Atrcurium", "fu": "0.5193"}
{"smiles": "CN[C@@H]1[C@@H](O)[C@@H](O[C@@H]2[C@@H](O)[C@H](O[C@H]3O[C@H](CN)[C@@H](O)[C@H](O)[C@H]3O)[C@@H](N)C[C@H]2NC(=O)C(O)CN)OC[C@]1(C)O", "stereo": "stereo partly drawn", "name": "Isepamicin", "fu": "0.95"}
{"smiles": "CCc1cccc2cc(C(O)CNC(C)(C)C)oc12", "stereo": "centres undefined", "name": "Bufuralol", "fu": "0.1187"}
{"smiles": "CC(=O)OCC1=C(C(=O)O)N2C(=O)[C@@H](NC(=O)CSc3ccncc3)[C@H]2SC1", "name": "Cephapirin", "fu": "0.5083"}
{"smiles": "Cc1ccc(N(C)C)cc1", "name": "N,N,4-Trimethylaniline", "fu": "0.05498"}
{"smiles": "CCc1cc(C(N)=S)ccn1", "name": "Ethionamide", "fu": "0.7"}
{"smiles": "CCOc1ccc(NC(C)=O)cc1", "name": "Phenacetin", "fu": "0.6222"}
{"smiles": "C[C@@](Cc1ccc(O)c(O)c1)(NN)C(=O)O", "name": "Carbidopa", "fu": "0.64"}
{"smiles": "COc1ccc(S(=O)(=O)N2C(=O)[C@@](c3ccccc3OC)(N3C[C@H](O)C[C@H]3C(=O)N(C)C)c3cc(Cl)ccc32)c(OC)c1", "name": "Nelivaptan", "fu": "0.0608"}
{"smiles": "N=C(N)NCCC[C@H](NC(=O)[C@@H]1CCCN1C(=O)[C@@H]1CSSC[C@H](N)C(=O)N[C@@H](Cc2ccc(O)cc2)C(=O)N[C@@H](Cc2ccccc2)C(=O)N[C@@H](CCC(N)=O)C(=O)N[C@@H](CC(N)=O)C(=O)N1)C(=O)NCC(N)=O", "name": "Argipressin", "fu": "0.98"}
{"smiles": "C1CCOC1", "name": "Tetrahydrofuran", "fu": "0.8251"}
{"smiles": "CC(C)NCC(O)COc1ccc(O)cc1", "stereo": "centres undefined", "name": "Prenalterol", "fu": "0.96"}
{"smiles": "C[C@H]1C[C@H]2[C@@H]3CCC4=CC(=O)C=C[C@]4(C)[C@@]3(Cl)[C@@H](O)C[C@]2(C)[C@@]1(OC(=O)CC)C(=O)COC(=O)CC", "fu": "0.13"}
{"smiles": "Cc1ncc([N+](=O)[O-])n1CC(O)CCl", "stereo": "centres undefined", "name": "Ornidazole", "fu": "0.85"}
{"smiles": "Cc1[nH]nc2c1N=C(c1ccccc1Cl)c1cc([N+](=O)[O-])ccc1N2", "fu": "0.0135"}
{"smiles": "CC(C)C[C@H](NC(=O)[C@@H](COC(C)(C)C)NC(=O)[C@H](Cc1ccc(O)cc1)NC(=O)[C@H](CO)NC(=O)[C@H](Cc1c[nH]c2ccccc12)NC(=O)[C@H](Cc1c[nH]cn1)NC(=O)[C@@H]1CCC(=O)N1)C(=O)N[C@@H](CCCNC(=N)N)C(=O)N1CCC[C@H]1C(=O)NNC(N)=O", "name": "Goserelin", "fu": "0.8"}
{"smiles": "CO/N=C(\\C(=O)N[C@@H]1C(=O)N2C(C(=O)O)=CCS[C@H]12)c1csc(N)n1", "name": "Ceftizoxime", "fu": "0.7183"}
{"smiles": "C1COCCO1", "name": "1,4-dioxane", "fu": "0.9398"}
{"smiles": "COc1cc2c3cc1Oc1cc(ccc1O)C[C@@H]1c4c(cc(OC)c(O)c4Oc4ccc(cc4)C[C@@H]3N(C)CC2)CC[N+]1(C)C.Cl.[Cl-]", "name": "(+)-Tubocurarine chloride hydrochloride", "fu": "0.5733"}
{"smiles": "CCN(CC)CCNC(=O)c1ccc(NC(C)=O)cc1", "name": "Acecainide", "fu": "0.9"}
{"smiles": "CO[C@@]1(NC(=O)C2SC(=C(C(N)=O)C(=O)O)S2)C(=O)N2C(C(=O)O)=C(CSc3nnnn3C)CS[C@@H]21", "stereo": "stereo partly specified", "name": "Cefotetan", "fu": "0.155"}
{"smiles": "CC[C@@H](c1ccc(C(=O)O)c(Oc2cccc(Cl)c2)c1)N1CCC[C@H](n2cc(C)c(=O)[nH]c2=O)C1", "fu": "0.02618"}

4 of these entries, quoted again:

{"smiles": "COC(=O)CCC(=O)OC", "name": "Dimethyl succinate", "fu": "0.9999"}
{"smiles": "CCN(CC)CCNC(=O)c1ccc(NC(C)=O)cc1", "name": "Acecainide", "fu": "0.9"}
{"smiles": "CO/N=C(\\C(=O)N[C@@H]1C(=O)N2C(C(=O)[O-])=C(C[n+]3cccc4c3CCC4)CS[C@H]12)c1csc(N)n1", "name": "Cefpirome", "fu": "0.8983"}
{"smiles": "Cc1ncc([N+](=O)[O-])n1CC(O)CCl", "stereo": "centres undefined", "name": "Ornidazole", "fu": "0.85"}